scFv variants of Ab-14 (light chain) against a SARS-CoV-2 spike peptide

Target peptide (SARS-CoV-2 spike, HR2 region): PDVDLGDISGINAS

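The starting antibody came from a phage panning campaign against this peptide. The variants were designed computationally from a first round of random CDR variants and then made and measured. Group labels follow the data file (Ctrl: baseline library sampled from a position-specific scoring matrix, with some repeated check sequences; En: ensemble of fine-tuned language models; GP: Gaussian process model; HC: hill climbing; Gen: genetic algorithm; Gibbs: Gibbs sampling; a sequence that several methods proposed may carry one label only). AlphaSeq pools MATa yeast showing the antibodies with MATalpha yeast showing the peptide. Binding brings cells together so that they mate, and sequencing counts the barcode pairs among the diploids. Scores were corrected for input abundance and mapped to Kd with protein pairs of known affinity run in the same pool. Each pool was mated in six replicate cultures.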

Parent scFv Ab-14: VH joined to VL by a 15-residue (Gly4Ser)3 linker. Changes lie in the light chain CDRs alone.
VH: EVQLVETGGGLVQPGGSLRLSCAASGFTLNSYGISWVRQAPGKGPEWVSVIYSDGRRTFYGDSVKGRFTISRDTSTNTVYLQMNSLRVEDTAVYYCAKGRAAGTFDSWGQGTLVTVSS
VL: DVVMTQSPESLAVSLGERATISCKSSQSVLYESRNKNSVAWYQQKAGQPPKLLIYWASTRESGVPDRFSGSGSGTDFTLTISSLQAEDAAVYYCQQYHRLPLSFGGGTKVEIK

Each variant is given by its three light chain CDRs, as the data file delimits them; those of the parent are KSSQSVLYESRNKNSVA, WASTRES, QQYHRLPLS.
The read-out is the apparent dissociation constant on a log10 scale (nM): the lower, the stronger.
A mean of the replicates is given; it leaves out those without a signal.
Where no diploid with the target was found in that replicate, the entry reads "ND": below detection, most likely a poor binder, though not proof of it.
The list is sorted by this average, lowest first, undetected variants last.
Of ten entries with the parent sequence, four were seen in most replicates (averages 0.34 to 2.37), three in one and three in none, so single entries are noisy.
The authors' rule: three or more of the six replicates give a measured affinity, fewer mean a poor binder.
Nonspecific signal, from three strains lacking the peptide, appeared in 4% of pairings of all light chain designs, centred on 2.64 (5% of these signals below 1.59); values are not corrected for it. Also given: how often the same scFv was detected with the empty control strains, with their mean in brackets.
Values of this round are not directly comparable with the first-round values of the same sequences.

CDR-L1 | CDR-L2 | CDR-L3 | group | log10 Kd (nM) by replicate | mean, log10 nM | signal with controls
QFHQGMIGDQRNMHSVA | NAQAAVP | QYYFRLPLT | En_Gibbs | -0.62 -1.17 -0.40 -0.84 -0.97 -1.11 | -0.85 | 0 of 18
KVSQEQLYESRNKNSVA | DASTRES | QQYHRLPLS | GP_HC | -0.40 -0.49 -0.58 -0.66 -0.70 -0.32 | -0.52 | 0 of 18
KVSQSHLYESRNKNSVA | NASTRES | QDYHRLPLS | GP_Gen | -0.27 -0.35 -0.43 -0.50 -0.37 -0.23 | -0.36 | 1 of 18 (4.71)
KLVQSVLYESRNKNSVA | NASTREV | QQYHRLPLS | GP_Gen | -0.20 -0.43 -0.31 -0.47 -0.37 -0.22 | -0.33 | 1 of 18 (3.46)
KMSQSVLYQSRNKNSVA | DASTRES | QQYHRLPLS | GP_HC | -0.30 -0.48 -0.09 -0.35 -0.25 -0.39 | -0.31 | 0 of 18
KLSQEDWYQSRMKNSVA | DASTRES | QQYHRLPLS | GP_Gibbs | -0.13 -0.31 -0.33 -0.36 -0.46 -0.12 | -0.29 | 0 of 18
KLPQSNLYESRNKNSVA | EASQRES | QQYHRLPLS | GP_Gen | -0.09 -0.30 -0.21 -0.37 -0.32 -0.13 | -0.24 | 0 of 18
KMPQSWLYESRNKNSVA | NASTRES | QQYHRLPLS | GP_Gen | -0.04 -0.23 -0.18 -0.28 -0.26 -0.06 | -0.18 | 4 of 18 (2.74)
KIDISELGESRNKNSVA | NASTREE | QQYHRLPLS | GP_Gibbs | 0.02 0.00 -0.08 -0.13 -0.20 -0.03 | -0.07 | 0 of 18
KLRWSMLYEDRNKNSVA | NASQRCS | QQYHRLPLS | GP_Gibbs | 0.20 -0.14 0.13 -0.14 -0.28 -0.13 | -0.06 | 0 of 18
KIEQSMLYESRNSNSVA | NASTRMD | QQYHRLPLM | GP_Gibbs | 0.08 -0.04 -0.09 -0.26 -0.29 0.26 | -0.06 | 3 of 18 (2.88)
KLMQGWLMESRNKNSVA | NASMRLE | QQYHRLPLS | GP_Gibbs | 0.11 -0.01 0.00 0.06 -0.05 0.16 | 0.05 | 3 of 18 (2.61)
FLSQSVLYESRNKNSVA | NASTRLS | QQYHRLPLS | GP_Gen | 0.25 0.16 -0.15 0.02 -0.14 0.29 | 0.07 | 1 of 18 (2.06)
KSSQSVLYESRNKNSVA | DAFVRES | QQYHRLPLS | Ctrl | 0.31 0.07 0.16 0.18 0.23 0.00 | 0.16 | 0 of 18
KLRQSTLYESRNKNSVA | QASTRES | QQYHRLPLS | GP_HC | 0.70 0.25 0.34 -0.27 -0.07 0.43 | 0.23 | 0 of 18
FQSQSVLYESRNKNSVA | DASTRES | QQYHRLPLS | GP_HC | 0.32 0.41 0.07 0.54 -0.03 0.47 | 0.30 | 0 of 18
KLSQSWLYESRNKNSVA | EASTRES | QAYHRLPLS | GP_Gen | 0.55 0.46 0.10 0.27 0.32 0.32 | 0.34 | 1 of 18 (1.64)
KVSLSVLLESRNVNAVA | EASTRES | QDYHRLPLS | GP_Gibbs | 0.34 0.38 0.51 0.36 0.13 0.32 | 0.34 | 0 of 18
HCSQSVGQEERQKNSVA | AASTREQ | QQYHRLPLS | GP_Gibbs | 0.55 0.22 0.25 0.28 0.51 0.30 | 0.35 | 2 of 18 (2.24)
KVSQSVLYESANKNSVA | WASERET | QQYFRLPLS | Ctrl | 0.48 0.39 0.41 0.30 0.37 0.40 | 0.39 | 0 of 18
SLHHYKLGENGMRGSVA | NATIRDQ | QQYFRLPLF | En_Gibbs | 0.47 0.65 0.38 0.22 0.37 0.36 | 0.41 | 2 of 18 (3.14)
KVYILDDGGDRNKNSVA | HASTRES | QQYHRLPLS | GP_Gibbs | 0.42 0.46 0.47 0.35 0.32 0.53 | 0.42 | 4 of 18 (3.09)
KILQSVLYESRNKNSVA | HASTREQ | QQYHFLPLS | GP_HC | 0.40 0.36 0.28 0.37 0.66 0.58 | 0.44 | 0 of 18
KITDDFLTEGNGRQNIA | HNNVALD | QQYQQLPLA | En_Gibbs | 0.33 0.72 0.38 0.35 0.20 0.78 | 0.46 | 0 of 18
KLSQSTLYDSENKNSVA | WASTRES | QQYKRLPLS | GP_HC | 0.61 0.38 0.68 0.41 0.38 0.46 | 0.49 | 4 of 18 (3.51)
KSLWSVLYESVNKNSVA | HASTRED | QQYHRLPLS | GP_HC | 0.69 0.58 0.72 0.37 0.27 0.78 | 0.57 | 1 of 18 (2.04)
KLMMSHLYESRNSNSVA | NASYREQ | QQYHRLPLS | GP_Gibbs | 0.65 0.44 0.59 0.40 0.75 0.75 | 0.60 | 0 of 18
KSLESVLYESNNKNSVA | HASTRED | QQYHRLPLS | GP_HC | 0.80 0.60 0.45 0.63 0.78 0.47 | 0.62 | 1 of 18 (2.05)
KISQSVLYESRNKNAVA | WASTRES | QQYHRLPLS | Ctrl | 0.81 0.77 0.69 0.31 0.51 0.90 | 0.67 | 1 of 18 (1.67)
KISGMVNFESTHINAVA | QMSTREE | QQYFRLPLS | En_HC | 0.71 0.52 1.47 1.24 0.38 0.61 | 0.82 | 1 of 18 (1.52)
TLTQVQGMESHNQDSVA | DLSTRGS | QQYHRLPLS | En_HC | 0.90 0.69 0.80 0.70 0.60 1.52 | 0.87 | 3 of 18 (2.51)
KSPQSVLYQTRNKHSVA | HASTREN | QQYHRLPLS | Ctrl | 0.99 0.73 0.79 0.73 1.12 1.31 | 0.95 | 1 of 18 (1.34)
KISSLTLYESVEKNNVA | EMSTRPS | QSYHRLPLS | En_HC | 0.88 1.51 0.72 1.04 0.96 1.07 | 1.03 | 1 of 18 (3.38)
TIDDEMPSHGLKWNSIA | GVATVLQ | QQYDRLPLS | En_Gibbs | 1.40 1.20 1.72 1.83 0.81 1.55 | 1.42 | 0 of 18
KSSQSVLYESRNKNSVA | RASTRPS | QQYHRLPLS | Ctrl | ND 1.31 1.80 ND 1.82 1.56 | 1.62 | 0 of 18
TLHNGDNHDQVSKYSIA | DATLIGE | QQYARLPLE | En_Gibbs | 1.89 1.43 1.95 1.98 1.59 1.36 | 1.70 | 1 of 18 (2.01)
IFSQSVLMGNMTRNSVA | QASQRFN | QQYDRLPLI | En_HC | 1.41 1.52 1.80 1.55 1.54 2.77 | 1.76 | 0 of 18
KSSQSVLYESRNKNSVA | WASTRES | QQYHRLGLS | Ctrl | ND ND ND 1.82 ND ND | 1.82 | 0 of 18
KSSQSVLYESRNKNSVA | WASVRES | QQPHYLPLS | Ctrl | ND ND ND ND 1.87 ND | 1.87 | 0 of 18
KLSQSVLFWGKAINSVA | EMETREY | QQYDRLPLS | En_HC | ND 2.89 2.16 1.39 2.33 1.91 | 2.14 | 0 of 18
KAQLDHEGQPRNHNSIA | EGISRTT | QQYFRLPLM | En_Gibbs | ND ND ND ND 1.60 2.83 | 2.22 | 1 of 18 (1.76)
KSSQSVLYESRNKNSVA | GASTRES | QQYHGLPLS | Ctrl | ND ND ND ND 3.01 2.79 | 2.90 | 0 of 18
KSSQSVLYESRNKNSVA | RASTRES | YQYHRDPLM | Ctrl | ND ND ND ND ND ND | ND | 0 of 18
KSSQQVLYESMNKNSVA | WASTRES | QTYHRLPLS | Ctrl | ND ND ND ND ND ND | ND | 1 of 18 (1.49)

The opening 3 entries, copied out:

| CDR-L1 | CDR-L2 | CDR-L3 | group | log10 Kd (nM) by replicate | mean, log10 nM | signal with controls |
|---|---|---|---|---|---|---|
| QFHQGMIGDQRNMHSVA | NAQAAVP | QYYFRLPLT | En_Gibbs | -0.62 -1.17 -0.40 -0.84 -0.97 -1.11 | -0.85 | 0 of 18 |
| KVSQEQLYESRNKNSVA | DASTRES | QQYHRLPLS | GP_HC | -0.40 -0.49 -0.58 -0.66 -0.70 -0.32 | -0.52 | 0 of 18 |
| KVSQSHLYESRNKNSVA | NASTRES | QDYHRLPLS | GP_Gen | -0.27 -0.35 -0.43 -0.50 -0.37 -0.23 | -0.36 | 1 of 18 (4.71) |

Data: MIT Lincoln Laboratory AlphaSeq set, Li et al. 2023, doi:10.1038/s41467-023-39022-2, as distributed in FLAb.